pIC50: −log10 of the molar value.
Target: Tyrosine-protein kinase BTK (Homo sapiens, UniProt Q06187)
Experiment: Irreversible inhibition of BTK (unknown origin)

By UniProt entry, the sequences of proteins in these tests, tags left out. Where a name states a change or a piece, a line headed by the entry shows the natural chain unless it says otherwise.
UniProt Q06187: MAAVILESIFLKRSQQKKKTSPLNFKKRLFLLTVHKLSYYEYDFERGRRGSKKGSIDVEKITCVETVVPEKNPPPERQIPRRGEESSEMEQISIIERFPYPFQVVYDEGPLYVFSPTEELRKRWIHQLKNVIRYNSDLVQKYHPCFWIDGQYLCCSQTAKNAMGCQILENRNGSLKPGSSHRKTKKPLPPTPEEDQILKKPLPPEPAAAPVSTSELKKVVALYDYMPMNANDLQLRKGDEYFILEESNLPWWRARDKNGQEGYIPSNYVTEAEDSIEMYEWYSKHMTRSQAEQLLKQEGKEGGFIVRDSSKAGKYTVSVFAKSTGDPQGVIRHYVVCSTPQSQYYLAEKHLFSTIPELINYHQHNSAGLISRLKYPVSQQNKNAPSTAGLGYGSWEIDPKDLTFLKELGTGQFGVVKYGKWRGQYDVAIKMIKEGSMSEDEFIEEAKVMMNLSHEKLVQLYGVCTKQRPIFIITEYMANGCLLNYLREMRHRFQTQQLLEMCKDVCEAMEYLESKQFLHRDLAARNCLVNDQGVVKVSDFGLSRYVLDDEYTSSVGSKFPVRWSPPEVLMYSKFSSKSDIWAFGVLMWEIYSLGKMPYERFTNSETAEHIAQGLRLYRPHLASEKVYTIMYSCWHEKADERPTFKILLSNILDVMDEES

pIC50: 9.30
Structure (SMILES): C=CC(=O)N1CCC(Nc2ncnc(N)c2-c2ccc(Oc3ccccc3)cc2)C1 (single isomer, unassigned)

Reference: ChEMBL document CHEMBL5241098, “Progress in the development of small molecular inhibitors of the Bruton's tyrosine kinase (BTK) as a promising cancer therapy” (Bioorg Med Chem, 2021)
